# Measured affinities in a library of Ab-95 light chain variants

Reference: Engelhart et al. 2022, doi:10.1038/s41597-022-01779-4. File: FLAb, binding data.

Antigen: PDVDLGDISGINAS, a 14-residue peptide of the SARS-CoV-2 spike HR2 region.

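Phage display of a naive human antibody library on the peptide gave the parent. AAYL52 was designed without a model: most single CDR substitutions and a random sample of double and triple ones. In AlphaSeq, yeast of one mating type display the scFv and yeast of the other type display the target. The frequency of each diploid, read from paired DNA barcodes, reflects how well the two displayed proteins bind. Read counts were normalised to the haploid input and turned into Kd by a linear fit to BCL2-family pairs of known affinity, for each replicate. The assay was run in three technical replicates.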

The variants keep the heavy chain, the linker and the frameworks of Ab-95 (scFv order VH, a 15-residue (Gly4Ser)3 linker, VL).
VH: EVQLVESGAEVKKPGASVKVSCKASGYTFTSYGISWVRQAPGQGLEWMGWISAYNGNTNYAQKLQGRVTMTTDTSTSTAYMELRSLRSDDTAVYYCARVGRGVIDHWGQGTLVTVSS
VL: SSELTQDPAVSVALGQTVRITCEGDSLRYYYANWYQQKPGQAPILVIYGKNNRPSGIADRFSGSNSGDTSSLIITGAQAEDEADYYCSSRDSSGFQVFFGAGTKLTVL

Variants are written as CDR1, CDR2 and CDR3 of the light chain (limits as in the source). Parent: EGDSLRYYYAN, GKNNRPS, SSRDSSGFQVF. The read-out is the apparent dissociation constant on a log10 scale (nM): the lower, the stronger. "ND" means that the variant was in the library but no mating with the target was seen in that replicate; the authors take this as a sign of poor binding, and no number exists.

{"CDR-L1": "AGDSLYYYYAN", "CDR-L2": "GKNNRPS", "CDR-L3": "SSRDSSGFQVF", "replicates, log10 nM": "2.70 / 2.43 / 2.27", "control signals": "3 of 9 (3.96)"}
{"CDR-L1": "EGDSLRYYHAN", "CDR-L2": "GKNNRPG", "CDR-L3": "SSRMSSGFQVF", "replicates, log10 nM": "3.09 / 2.57 / 2.65", "control signals": "5 of 9 (3.51)"}
{"CDR-L1": "EDDSLRYYYAN", "CDR-L2": "GKNNRNS", "CDR-L3": "SSRDSSWFQVF", "replicates, log10 nM": "ND / ND / ND", "control signals": "2 of 9 (4.03)"}
{"CDR-L1": "EGDSLRYYYAN", "CDR-L2": "GKNIRQS", "CDR-L3": "SSRDSSGFQSF", "replicates, log10 nM": "2.25 / 2.30 / 2.56", "control signals": "2 of 9 (4.02)"}
{"CDR-L1": "EGDSLRYYYAM", "CDR-L2": "GKNTRPS", "CDR-L3": "SSRDSSGFQVS", "replicates, log10 nM": "3.35 / 4.51 / 4.42", "control signals": "5 of 9 (3.83)"}
{"CDR-L1": "EWDSLRYYYAN", "CDR-L2": "GMNNRNS", "CDR-L3": "SSRDSSGFQVF", "replicates, log10 nM": "3.91 / ND / 4.56", "control signals": "5 of 9 (3.79)"}
{"CDR-L1": "EGDSSQYYYAN", "CDR-L2": "GKNNRPS", "CDR-L3": "SSRTSSGFQVF", "replicates, log10 nM": "4.09 / ND / ND", "control signals": "0 of 9"}
{"CDR-L1": "EGDSLRYYSAN", "CDR-L2": "GKNNLPS", "CDR-L3": "SSRKSSGFQVF", "replicates, log10 nM": "3.44 / 3.61 / 2.83", "control signals": "4 of 9 (3.51)"}
{"CDR-L1": "EGDSLRYYNAN", "CDR-L2": "GKNNRPS", "CDR-L3": "ISRDSSGAQVF", "replicates, log10 nM": "1.66 / 1.47 / 1.09", "control signals": "1 of 9 (5.34)"}
{"CDR-L1": "EGDSLRYYYYN", "CDR-L2": "GKNNRPS", "CDR-L3": "SSRDSSGFYVF", "replicates, log10 nM": "3.28 / 3.60 / ND", "control signals": "2 of 9 (4.72)"}
{"CDR-L1": "YGDELRYYYAF", "CDR-L2": "GKNNRPS", "CDR-L3": "SSRDSSGFQVF", "replicates, log10 nM": "ND / ND / ND", "control signals": "0 of 9"}
{"CDR-L1": "EGDSLRMYYAN", "CDR-L2": "GGNNRPS", "CDR-L3": "SSRDSSHFQVF", "replicates, log10 nM": "2.81 / 2.81 / 2.28", "control signals": "4 of 9 (4.39)"}
{"CDR-L1": "EGDSLRYYYAN", "CDR-L2": "GKNNRPS", "CDR-L3": "SSRDSSGDQVC", "replicates, log10 nM": "2.51 / 3.19 / 1.98", "control signals": "2 of 9 (3.66)"}
{"CDR-L1": "MGDSLRYYYAN", "CDR-L2": "PKNNRGS", "CDR-L3": "SSRDSSGFQVF", "replicates, log10 nM": "3.92 / 4.07 / 3.93", "control signals": "1 of 9 (4.23)"}
{"CDR-L1": "CGDSLEYYYAE", "CDR-L2": "GKNNRPS", "CDR-L3": "SSRDSSGFQVF", "replicates, log10 nM": "ND / ND / ND", "control signals": "0 of 9"}
{"CDR-L1": "EGDSLRYYYAN", "CDR-L2": "GDNWRPS", "CDR-L3": "SSRDSSGFQIF", "replicates, log10 nM": "3.13 / 3.51 / 2.30", "control signals": "2 of 9 (4.14)"}
{"CDR-L1": "EGDSLRYYYAN", "CDR-L2": "PLINRPS", "CDR-L3": "SSRDSSGFQVF", "replicates, log10 nM": "3.31 / 5.88 / ND", "control signals": "5 of 9 (4.10)"}
{"CDR-L1": "EGVSLRYSYAN", "CDR-L2": "GKNNRPS", "CDR-L3": "SSGDSSGFQVF", "replicates, log10 nM": "1.73 / 1.33 / 1.12", "control signals": "1 of 9 (3.78)"}
{"CDR-L1": "EWDSLRYIYAN", "CDR-L2": "GKNMRPS", "CDR-L3": "SSRDSSGFQVF", "replicates, log10 nM": "3.82 / 3.36 / 4.05", "control signals": "4 of 9 (4.10)"}
{"CDR-L1": "EYDWLRYYYAN", "CDR-L2": "GKNNRPS", "CDR-L3": "SSRDSSIFQVF", "replicates, log10 nM": "2.61 / 3.51 / 2.13", "control signals": "5 of 9 (4.18)"}

Top 3 of the variants detected in all replicates, tightest first:

{"CDR-L1": "EGVSLRYSYAN", "CDR-L2": "GKNNRPS", "CDR-L3": "SSGDSSGFQVF", "replicates, log10 nM": "1.73 / 1.33 / 1.12", "control signals": "1 of 9 (3.78)"}
{"CDR-L1": "EGDSLRYYNAN", "CDR-L2": "GKNNRPS", "CDR-L3": "ISRDSSGAQVF", "replicates, log10 nM": "1.66 / 1.47 / 1.09", "control signals": "1 of 9 (5.34)"}
{"CDR-L1": "EGDSLRYYYAN", "CDR-L2": "GKNIRQS", "CDR-L3": "SSRDSSGFQSF", "replicates, log10 nM": "2.25 / 2.30 / 2.56", "control signals": "2 of 9 (4.02)"}

Empty control strains, which show no peptide, gave a signal in 28% of pairings with library AAYL52; the median was 3.91 and 95% of these signals were weaker than 2.90. No background was subtracted. For each scFv, signals with the empty controls are counted beside the result, with their mean in brackets.